# Tests used:
# SIRT1 [1] = target: T1, SIRT1 (Homo sapiens, UniProt Q96EB6); test: Acetylation of p53 (K382) via UV irradiation, western blot, U2OS cells; format: cell-based; details: Ex527 added before PN6, FIGS. 2E-2F
# T1 construct: endogenous in cells; host or cells: U2OS cells; IMR90 cells
# T1 sequence (Q96EB6 1-747): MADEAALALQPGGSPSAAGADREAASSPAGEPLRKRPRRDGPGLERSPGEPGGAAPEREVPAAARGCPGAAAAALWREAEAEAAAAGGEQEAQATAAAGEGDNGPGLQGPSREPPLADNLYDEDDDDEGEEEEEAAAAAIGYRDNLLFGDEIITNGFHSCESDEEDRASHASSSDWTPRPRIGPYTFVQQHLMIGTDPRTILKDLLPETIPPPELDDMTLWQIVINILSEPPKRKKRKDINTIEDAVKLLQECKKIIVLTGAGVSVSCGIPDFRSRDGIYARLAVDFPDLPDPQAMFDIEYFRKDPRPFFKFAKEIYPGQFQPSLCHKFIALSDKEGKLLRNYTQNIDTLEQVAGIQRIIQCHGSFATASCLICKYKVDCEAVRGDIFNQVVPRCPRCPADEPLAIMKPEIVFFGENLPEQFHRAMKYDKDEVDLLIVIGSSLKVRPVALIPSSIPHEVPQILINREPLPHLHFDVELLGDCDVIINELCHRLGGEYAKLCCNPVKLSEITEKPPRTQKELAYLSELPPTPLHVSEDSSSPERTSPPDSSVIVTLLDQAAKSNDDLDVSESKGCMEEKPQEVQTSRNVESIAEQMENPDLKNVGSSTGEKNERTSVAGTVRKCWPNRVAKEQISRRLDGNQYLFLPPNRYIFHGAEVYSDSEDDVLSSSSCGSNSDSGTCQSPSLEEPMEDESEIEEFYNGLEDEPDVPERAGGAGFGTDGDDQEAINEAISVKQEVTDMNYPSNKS
# Description: (§1) U2OS cells (1.2×10^5 cells/dish) or IMR90 cells (3.0×10^5 cells/dish) were seeded into a 3.5 cm culture dish, and incubated with 0, 10, 25, 50, or 100 μM PN6 for 16 hours, before subjected to UVB irradiation at 7.5 mJ/m^2 (for U2OS cells) or 5.0 mJ/m^2 (for IMR90 cells) for 4 hours. In the case when selisistat (Ex527, an inhibitor for yeast SIR2 or mammalian SIRT1) was added, 1 μl of 50 mM Ex527 was added to the culture one hour prior to the addition of PN6.
# (§2) Cells were harvested with a 1.25× Laemmli buffer and lysed in RIPA lysis buffer containing 1% of Triton X-100 and a protease inhibitor cocktail, and total protein concentrations were measured with a protein assay kit. Proteins in the samples of the lysates with the same amounts of total protein were separated by sodium dodecyl sulfate polyacrylamide gel electrophoresis (SDS-PAGE) (10% polyacrylamide gels) and analyzed by immunoblotting. Primary antibodies against p53ac (K382) (1:1,000), p21 (1:1,000), and 3-actin (1:200,000) were applied to detect the corresponding proteins. Horseradish peroxidase (HRP)-conjugated secondary antibodies against mouse IgG were then incubated with the membranes, and proteins were visualized by chemiluminescence according to the manufacturer's instructions. Protein quantification was performed by software.
# SIRT1 [2] = target: T1, SIRT1; test: Acetylation of p53 (K382) via UV irradiation, western blot, IMR90 cells; format: cell-based; details: presence of Ex527, FIGS. 2I-2J
# Description: as §1, §2
substance,measurement,setting,value
"selisistat [Ex527, reference compound]",effect on SIRT1 activity induced by PN6,SIRT1 [1],compromised
same,effect on PN6-induced reversal of P53 acetylation,SIRT1 [2],eliminated

# Reference: patent US20250009763A1, “METHODS FOR EXTENDING LIFESPAN AND/OR DELAYING AGING” (priority 2023, published 2025)
